Consider 45 molecules from PubChem BioAssay AID463195 (Sanford-Burnham Center for Chemical Genomics, 2010).

The inhibition is the relative decrease from the control value, in per cent.

Only a part is listed here, and it is no random draw. Activity calls are given as the source filed them.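 The calls were made as follows: active = inhibition of 40% or more at the single tested concentration; inactive = the rest.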

A short description of the test: wild-type TIM10 yeast growth inhibition – luminescence, uHTS, counter-screen for tim10-1 yeast inhibitor project, primary screen (AID 463195).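 Also: wild-type TIM10 isogenic control strain grown at permissive 25 °C; 0% = DMSO yeast wells and 100% = minimal medium wells without yeast.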 The following applies: S. cerevisiae TIM10 strain growth, BacTiter-Glo luminescence, 24 h; at 10 µM; stronger effect = higher value.
In the case of `CN(C)C(=O)OCCc1n(C)cc[n+]1C`, the inhibition is inactive: -8.71%.
Take `COc1ccc(C2=NCC(CBr)S2)cc1` (stereo not given): the inhibition is inactive: 16.7%.
The value for `Cc1ccc(NP(=O)(Oc2ccccc2)Oc2ccccc2)nc1` was inactive: 2.96%; that for `CCc1nc2c(n1)c1c(non1O)c1c2no[n+]1[O-]` was inactive: -3.8%.
In the case of `O=[N+]([O-])c1cc([N+](=O)[O-])c(CCNc2ccccc2)c([N+](=O)[O-])c1`, the inhibition is active: 56.8%.
Take `O=[N+]([O-])c1cccc2n[nH]nc12`: the inhibition was inactive: -18.4%.
For `CC(=O)N1C2C3N(C(C)=O)C1C1N(C(C)=O)C(C(N1C(C)=O)N3C(C)=O)N2C(C)=O`, the inhibition is inactive: 10.4%.
In the case of `O=[N+]([O-])c1ncn(CCn2ncnc2[N+](=O)[O-])n1`, the inhibition was inactive: 3.57%.
As for `CC(C)(C)C(=O)NC(Sc1ccncn1)C(Cl)(Cl)Cl` (stereo not given), the figure is inactive: -9.06%; as for `O=[N+]([O-])c1cccc(NC2=NCC(CBr)S2)c1` (stereo not given), inactive: 13.4%; as for `O=C(Nc1cc([As](=O)(O)O)ccc1O)c1ccccc1`, inactive: 2.93%.
Consider `O=[As](O)(c1ccccc1)c1ccc(O)cc1`, for which the inhibition is inactive: -11.7%.
In the case of `O=[N+]([O-])c1ncn(CCn2cnc([N+](=O)[O-])n2)n1`, the inhibition was inactive: -14%.
Take `O=C(OC1CN2CCC1CC2)c1cccc(Cl)c1` (stereo not given): the inhibition was inactive: -5.98%.
As for `C(Cc1nn[nH]n1)Cc1nn[nH]n1`, the figure is inactive: -0.431%.
Take `Nc1ccc([As](=O)(O)c2ccc([N+](=O)[O-])cc2)cc1`: the inhibition was inactive: -16.8%.
Regarding `O=P(Nc1ccccn1)(c1ccc(Br)cc1)c1ccc(Br)cc1`, the inhibition was inactive: 8.75%.
Turning to `CN(C)C1(CNC(=O)c2ccc(Cl)c(S(N)(=O)=O)c2)CCCCC1`, the inhibition is inactive: -18.8%.
For the molecule `O=P(Nc1nc2ccccc2s1)(c1ccccc1)c1ccccc1`, the inhibition is inactive: 10.1%.
`C[C@H]1OP(=O)(Oc2ccccc2)[C@H](O)[C@H](O)[C@H]1N=[N+]=[N-]` (stereo not given in full): the inhibition was inactive: 1.79%.
Turning to `CC(C)C(=O)NC(Sc1ccccc1)C(Cl)(Cl)Cl` (stereo not given), the inhibition was inactive: -21.9%.
For the molecule `O=P(Nc1nccs1)(c1ccccc1)c1ccccc1`, the inhibition was inactive: -0.666%.
The value for `c1nnnn1CCn1cnnn1` was inactive: -10.4%; that for `Cc1ccccc1CN(C)C(=O)COC(=O)C(O)(c1ccccc1)c1ccccc1` was inactive: 1.6%.
As for `C[C@H]1OP(=O)(Oc2ccccc2)C[C@@H]2O[C@@H]21` (stereo not given in full), the inhibition is inactive: -7.65%.
For `C[C@@H]1C=CCP(=O)(Oc2ccccc2)O1` (stereo not given in full), the inhibition was inactive: -6.08%.
With `CC(=O)c1ccc(N2CC2c2ccncc2)cc1` (stereo not given), the inhibition was inactive: -1.61%.
The value for `CC(=O)Nc1ccc([As](=O)(O)O)c(O)c1` was inactive: 6.71%.
As for `CC(=O)Nc1ccc(Oc2c([N+](=O)[O-])cc([N+](=O)[O-])cc2[N+](=O)[O-])cc1`, the figure is inactive: 2.28%; as for `O=P1(Nc2nc3ccc(Cl)cc3s2)COc2ccccc2O1` (stereo not given), inactive: 4.34%; as for `CCOc1ccc(C2=NCC(CBr)S2)cc1` (stereo not given), inactive: 13.8%.
Consider `CC(C)(C)C(=O)NC(Sc1ccccc1)C(Cl)(Cl)Cl` (stereo not given), for which the inhibition was inactive: 12.5%.
With `O=C(OC1CN2CCC1CC2)c1ccccc1` (stereo not given), the inhibition is inactive: -20.2%.
For the molecule `CCC(=O)N1C2C3N(C(=O)CC)C1C1N(C(=O)CC)C(C(N1C(=O)CC)N3C(=O)CC)N2C(=O)CC`, the inhibition is inactive: 3.12%.
As for `COC(=O)c1cc2c(s1)N=C(c1ccccc1)N(C)P2(=O)N1CCOCC1` (stereo not given), the inhibition is inactive: 2.95%.
In the case of `CC(=O)NC(SC(=S)N(CC(C)C)CC(C)C)C(Cl)(Cl)Cl` (stereo not given), the inhibition was inactive: 32.4%.
In the case of `Cc1ccc(OP(=O)(Nc2ccccn2)Oc2ccc(C)cc2)cc1`, the inhibition was inactive: -15%.
The value for `CC(NC(=O)COC(=O)C(O)(c1ccccc1)c1ccccc1)c1ccccc1` (stereo not given) was inactive: 13.2%.
Take `Cc1ccccc1OP(=O)(Nc1ccccn1)Oc1ccccc1C`: the inhibition is inactive: 30.4%.
The value for `CN(C)C(=O)Oc1noc2ccccc12` was inactive: 2.32%; that for `c1ccc(-c2nn[nH]n2)c(-c2nn[nH]n2)c1` was inactive: -6.83%; that for `Cc1ccc(NP(=O)(Oc2cccc(C)c2)Oc2cccc(C)c2)nc1` was inactive: -1.89%.
Regarding `CCOC(=O)NC(Sc1ccccc1)C(Cl)(Cl)Cl` (stereo not given), the inhibition is inactive: -7.94%.
On to `CCNC(=S)/N=C(\N)N[N+](=O)[O-]`, for which the inhibition was inactive: -3.94%.
`O=C(NC1CCS(=O)(=O)C1)NP(=S)(Oc1ccccc1)Oc1ccccc1` (stereo not given): the inhibition was inactive: 2.24%.
